The species named for one series is Canis familiaris. The series can be described thus: Half life in dogs. Conditions: dog, in vivo.
For the next series, the target named is T1, Neutrophil elastase (Homo sapiens, UniProt P08246).
T1 sequence (P08246 whole entry): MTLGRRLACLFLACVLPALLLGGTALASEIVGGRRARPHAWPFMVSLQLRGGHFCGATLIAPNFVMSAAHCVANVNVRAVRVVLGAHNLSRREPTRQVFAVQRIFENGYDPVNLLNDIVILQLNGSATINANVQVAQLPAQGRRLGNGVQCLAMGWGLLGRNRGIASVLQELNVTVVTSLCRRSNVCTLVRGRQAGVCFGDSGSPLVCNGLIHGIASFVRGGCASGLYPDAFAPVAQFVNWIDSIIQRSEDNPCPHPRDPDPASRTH

Sequences of proteins named here, by UniProt entry; tags and fusion partners are left off. A change or cut given only in a name is not applied to a line headed by its entry.
UniProt P08254: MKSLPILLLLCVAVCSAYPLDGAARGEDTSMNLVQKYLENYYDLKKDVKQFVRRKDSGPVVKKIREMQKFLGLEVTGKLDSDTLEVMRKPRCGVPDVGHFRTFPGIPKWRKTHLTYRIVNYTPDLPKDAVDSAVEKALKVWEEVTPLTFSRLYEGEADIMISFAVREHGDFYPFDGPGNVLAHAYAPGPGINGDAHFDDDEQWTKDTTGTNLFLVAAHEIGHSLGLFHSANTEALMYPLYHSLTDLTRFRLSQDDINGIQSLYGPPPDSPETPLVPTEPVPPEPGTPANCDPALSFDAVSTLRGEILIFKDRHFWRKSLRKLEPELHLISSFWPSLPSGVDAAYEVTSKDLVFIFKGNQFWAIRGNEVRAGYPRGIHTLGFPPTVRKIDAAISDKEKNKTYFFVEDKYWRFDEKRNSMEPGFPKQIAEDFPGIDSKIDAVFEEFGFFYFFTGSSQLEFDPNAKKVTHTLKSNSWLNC

The target in the next series is T2, Caspase-1 (Homo sapiens) (UniProt P29466).
T2 sequence (whole entry): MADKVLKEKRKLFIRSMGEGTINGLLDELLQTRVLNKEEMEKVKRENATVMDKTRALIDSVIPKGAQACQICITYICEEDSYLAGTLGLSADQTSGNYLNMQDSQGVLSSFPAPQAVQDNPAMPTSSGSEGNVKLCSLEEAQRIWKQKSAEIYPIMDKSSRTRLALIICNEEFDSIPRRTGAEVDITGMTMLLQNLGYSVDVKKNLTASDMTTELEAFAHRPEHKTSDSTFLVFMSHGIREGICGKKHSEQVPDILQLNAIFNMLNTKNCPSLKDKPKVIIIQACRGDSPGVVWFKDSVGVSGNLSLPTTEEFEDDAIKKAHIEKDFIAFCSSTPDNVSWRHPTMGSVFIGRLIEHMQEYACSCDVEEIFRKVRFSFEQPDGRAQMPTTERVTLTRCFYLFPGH
The series can be described thus: Inhibition of IL-1 beta converting enzyme.

Series [1] addresses T3, Calpain-1 catalytic subunit (Homo sapiens) (UniProt P07384).
T3 sequence (whole entry): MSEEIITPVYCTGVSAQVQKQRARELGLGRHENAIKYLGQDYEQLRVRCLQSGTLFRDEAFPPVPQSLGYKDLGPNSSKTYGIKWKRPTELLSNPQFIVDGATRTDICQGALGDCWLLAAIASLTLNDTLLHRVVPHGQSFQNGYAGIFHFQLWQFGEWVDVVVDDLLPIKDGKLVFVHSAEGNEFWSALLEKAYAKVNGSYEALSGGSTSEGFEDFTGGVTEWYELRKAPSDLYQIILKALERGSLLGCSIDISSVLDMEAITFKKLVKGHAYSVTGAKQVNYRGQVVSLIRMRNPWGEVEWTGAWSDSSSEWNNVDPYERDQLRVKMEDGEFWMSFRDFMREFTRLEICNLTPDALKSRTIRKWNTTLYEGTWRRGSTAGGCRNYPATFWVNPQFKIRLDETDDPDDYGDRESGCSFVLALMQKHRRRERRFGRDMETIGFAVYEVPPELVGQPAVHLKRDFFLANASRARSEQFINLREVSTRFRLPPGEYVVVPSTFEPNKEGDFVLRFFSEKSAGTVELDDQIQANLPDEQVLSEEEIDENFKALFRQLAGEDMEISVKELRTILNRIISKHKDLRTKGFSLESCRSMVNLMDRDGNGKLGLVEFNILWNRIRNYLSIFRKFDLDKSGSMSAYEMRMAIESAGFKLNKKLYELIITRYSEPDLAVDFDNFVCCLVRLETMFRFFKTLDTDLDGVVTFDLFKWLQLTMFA
Briefly: Inhibition activity of calpain.

The target in a further series is Collagenase 3 (Homo sapiens, UniProt P45452).
Another series concerns the target Stromelysin-1 (Homo sapiens, UniProt P08254).

These results are taken from ChEMBL document CHEMBL1133572, “Protease inhibitors: current status and future prospects” (J Med Chem, 2000).

In the series filed under Canis familiaris, `CC1=CCN(C(=O)[C@H](Cc2ccc(C(=N)N)cc2)NS(=O)(=O)c2ccc3c(c2)CN(C)CC3)[C@@H](C(=O)O)C1` displayed a half-life of 48 min.

Regarding `CC(C)(C)C(=O)Oc1ccc(S(=O)(=O)Nc2ccccc2C(=O)NCC(=O)O)cc1`, the Ki on Neutrophil elastase stood at 200 nM.

As for `O=C(O)C[C@H](NC(=O)Cn1c(-c2cccs2)ncc(NC(=O)OCc2ccccc2)c1=O)C(=O)COC(=O)c1c(Cl)cccc1Cl`, the K obs / 1 on Caspase-1 (Homo sapiens) came to 272000 M⁻¹ s⁻¹.

The compound `CC(C)C[C@H](NC(=O)N1CCc2ccccc2C1)C(=O)N[C@@H](Cc1ccccc1)C(=O)CF` had a K obs / 1 in series [1] of 276000 M⁻¹ s⁻¹.

The compound `CN1C(=O)N(C[C@H](C(=O)NO)[C@@H](CC2CCCC2)C(=O)N2CCCCC2)C(=O)C1(C)C` returned a Ki on Collagenase 3 of 3 nM.

In turn, `COc1ccc(S(=O)(=O)N2CC(C)(C)CN(S(=O)(=O)c3ccc(OC)cc3)C2C(=O)NO)cc1` showed a Ki at Stromelysin-1 of 18 nM.
